# Yeast mating assay B: variants of the scFv Ab-14

Binding partner: SARS-CoV-2 spike HR2 peptide, sequence PDVDLGDISGINAS.

Each scFv is VH, three GGGGS repeats, VL, as in the parent Ab-14, and differs from it in the CDRs of the heavy chain only.
VH: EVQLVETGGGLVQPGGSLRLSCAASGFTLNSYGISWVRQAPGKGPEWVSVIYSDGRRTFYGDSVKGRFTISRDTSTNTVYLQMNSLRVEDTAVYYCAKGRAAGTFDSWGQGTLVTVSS
VL: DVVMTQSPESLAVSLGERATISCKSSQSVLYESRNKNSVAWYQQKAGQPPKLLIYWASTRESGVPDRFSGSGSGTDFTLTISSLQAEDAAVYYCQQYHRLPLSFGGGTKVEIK

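These sequences belong to a second round, designed from the earlier measurements on random variants of the parent. Several design methods are mixed in this list. In AlphaSeq, yeast of one mating type display the scFv and yeast of the other type display the target. Binding brings cells together so that they mate, and sequencing counts the barcode pairs among the diploids. The ratio of observed to expected reads was calibrated, replicate by replicate, on BCL2-family standards whose Kd was known from biolayer interferometry. Each pool was mated in six replicate cultures.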

Variants are written as CDR1, CDR2 and CDR3 of the heavy chain (limits as in the source). Parent: GFTLNSYGIS, VIYSDGRRTFYGDSVK, GRAAGTFDS.
The Kd shown is the geometric mean over detected replicates; a lower Kd is a better binder.
"not detected" marks a missing value. The strain was present, yet no cells mated with the target were sequenced in any replicate, which points to weak or no binding.
The authors' rule: three or more of the six replicates give a measured affinity, fewer mean a poor binder.

CDR-H1	CDR-H2	CDR-H3	Kd	detected
GFDLNEYGIS	VIYADGRRTAYIDSVK	GEVAGTFDM	110 pM	6 of 6
GFTLNEYGIS	VIYSDGRRTFYSDSVK	GRAAVTFDK	not detected	0 of 6
PFSLNSYGIS	VIYSDGRRTFYKDSVK	GRTAGTFDS	140 nM	2 of 6
GFDLNEYGIS	VIYADGIRTFYADSVK	GNAAGTFDA	580 pM	6 of 6
GFSLDEFGIS	VIYADGMRTVYSQDVK	GQHVEFTVG	not detected	0 of 6
GGDIQDYGIS	VIYADGQRASYADEVK	GNIGGIFSD	1.0 µM	1 of 6
GFDLDEYGIS	VIYADGVRTAYADSVK	GGNAGTFDI	830 pM	6 of 6
GFDLNEYGIS	VIYADGVRTAYIDSVK	GNQAGTFDL	810 pM	6 of 6
GFSLNSYGIS	VIYSDGRRTFYDDSVK	GTLAGTFDS	620 pM	6 of 6
GFSLNSYGIS	VIYSDGRRTFYGDSVK	GSAAGTFDV	1.1 nM	6 of 6
GFDLNEYGIS	VIYADGRRTYYSDSVK	GEVGGTFDV	750 pM	6 of 6
GKSLDEYGIS	VIYADGKRTAYADSVK	NSVMSGRVT	not detected	0 of 6
GFDLNEYGIS	VIYADGQRTAYANSVK	GENAGTFDV	2.7 nM	6 of 6
GFHLNSYGIS	VIYSDGRRTFYIDSVK	GKLAGTFDS	38 nM	1 of 6
GFHLDEYGIS	VIYADGMRSQYADNVK	GGIRAYFTQ	not detected	0 of 6
GFDLNSYGIS	VIYSDGRRTFYGDNVK	GNTAGTFDS	570 pM	6 of 6
GFTLNSYGIS	VIYSDGRRTFYGDSVK	GELAGTFDV	5.2 nM	6 of 6
GFDLNEYGIS	VIYADGVRTFYIDSVK	GENAGTFDM	940 pM	6 of 6
GFSLDEYGIS	VIYADGRRTFYQDSVK	GEVAGTFDS	310 pM	6 of 6
GFDLNSYGIS	VIYSDGRRTFYGDSVK	GRQAGTFDQ	16 nM	6 of 6
GFTLNEYGIS	VIYADGMRTQYADQVK	GNLVATVMT	not detected	0 of 6
GFDLNEYGIS	VIYADGMRTFYADSVK	GEIAGTFKF	600 pM	6 of 6
GFTLNSYGIS	VIYSDGRRTFYQDSVK	GQLAGTFDD	1.9 nM	6 of 6
GFDLDEYGIS	VIYADGSRTAYSDSVK	GENAGTFDL	2.4 nM	6 of 6
GFDLNEYGIS	VIYADGRRTFYADSVK	GENAGTFNS	450 pM	6 of 6
HFSLNEYGIS	VIYSDGRRTFYGDSVK	GRTAGTFDS	3.1 nM	6 of 6
GFDLNEYGIS	VIYADGVRTAYADDVK	GENAGTFDL	1.9 nM	6 of 6
GFNLDEYGIS	VIYADGQRTAYAKHVK	GTGGMIRGV	4.7 nM	1 of 6
GFTLTSYGIS	VIYSDGRRTFYGDSVK	GRAKQTFFD	not detected	0 of 6
GFTLNEYGIS	VIYSDGRRTFYGDSVK	GRAMGTFLS	30 nM	1 of 6
GFDLNEYGIS	VIYADGKRTFYADSVK	GEAGGTFDV	1.6 nM	6 of 6
GFDLNEYGIS	VIYADGMRTAYADDVK	GNQAGTFDI	380 pM	6 of 6
GFDLNEYGIS	VIYADGRRTFYSDSVK	GNNAGTFDI	2.4 nM	6 of 6
GYDLQDYGIS	VIYADGVRVAYHQSVK	GQLAGIFLL	not detected	0 of 6
GFTINEYGIS	VIYSDGRRTFYGDSVK	GKCAGTFDS	not detected	0 of 6
GFDLNEYGIS	VIYADGKRTAYVDSVK	GETAGTFDQ	270 pM	6 of 6

Second part, the sequence after the result:

Kd	detected	CDR-H1	CDR-H2	CDR-H3
36 nM	1 of 6	GFTLNSYGIS	VIYGDGRRTFYGDSVK	GRQAGTFDS
3.8 nM	2 of 6	GFNLNSYGIS	VIYSDGRRTFYDDSTK	GEAAGTFDS
670 nM	1 of 6	GFTLSEYGIS	VIYADGRRTFYGDSVK	GKAAGYFDS
not detected	0 of 6	GFTLNSYGIS	VIYSDGRRTFYADSVK	GSEAGTFDS
140 nM	1 of 6	GMNLEEYGIS	VIYADGLRSAYVDAVK	GGVGDVDFV
54 nM	1 of 6	GFTMNEYGIS	VIYSDGRRTFYGDSVK	GRAAGFFDS
7.6 nM	5 of 6	GFHLNSYGIS	VIYSDGRRTFYGDSVK	GRFAGTFNS
1.3 µM	4 of 6	GFNLNDYGIS	VIYSDGRRTFYGDSVK	GSASGTFDS
3.8 nM	5 of 6	GFTLNSYGIS	VIYSDGRRTFYSDSVK	GVAAGTFDS
830 pM	6 of 6	GFDLNEYGIS	VIYADGVRTFYTDSVK	GQLAGTFDS
1.4 nM	6 of 6	GFDLNNYGIS	VIYADGLRVEYENKVK	GDVAGTFDS
1.8 nM	6 of 6	GFALNEYGIS	VIYSDGRRTFYKDSVK	GRAAGTFDS
670 pM	6 of 6	GFDLNEYGIS	VIYADGMRSAYADSVK	GNTAGTFDV
750 pM	6 of 6	GFDLNEYGIS	VIYADGVRTYYADDVK	GNNAGTFDV
1.4 nM	6 of 6	GFDLNSYGIS	VIYSDGKRTFYGDSVK	GRNAGTFDS
5.4 nM	5 of 6	GFTLNSYGIS	VIYSDGMRTFYSDSVK	GSTAGTFDS
not detected	0 of 6	GFDLNSYGIS	VIYSDGRRTFYIDSVK	GRAAGIFDS
1.8 µM	1 of 6	GMSLGEYGIS	VIYADGERVNYTNNFK	GVMAGTFDV
230 pM	6 of 6	GFDLDEYGIS	VIYADGRRTFYSDSVK	GSEAGTFDV
1.7 nM	6 of 6	GFDLNSYGIS	VIYSDGRRTFYDDRVK	GRTAGTFDS
280 pM	6 of 6	GFDLNEYGIS	VIYADGRRTFYKDSVK	GQNGGTFDV
400 pM	6 of 6	GFNLDEYGIS	VIYADGMRTAYADSVK	GEVAGTFDV
not detected	0 of 6	GFNLEEYGIS	VIYADGKRQQYSENVK	GHKGNVRTV
520 nM	4 of 6	GFNLNSYGIS	VIYSDGRRTFYGDPVK	GRLAGTFDS
450 pM	6 of 6	GFTLNEYGIS	VIYADGRRTFYGDSVK	GRAAGTFDK
not detected	0 of 6	GFTLNSYGIS	VIYADGRRTFNGDSVK	GRAAATFDS
1.0 nM	6 of 6	GFVLNDYGIS	VIYSDGRRTFYADSVK	GRTAGTFDS
4.0 nM	12 of 12	GFQLNSYGIS	VIYSDGRRTFYSDSVK	GRAAGTFDS
63 nM	1 of 6	GKDLQEYGIS	VIYADGARTAYSNSVK	GTQDISLIV
400 pM	6 of 6	GFDLNEYGIS	VIYADGKRTFYADSVK	GEAAGTFDI
12 nM	4 of 6	GFSLNEYGIS	VIYSDGRRTFYGWNVK	GRTAGTFDS
27 nM	6 of 6	KFSLNSYGIS	VIYSDGRRTAYGDSVK	GRAAGTFDS
130 nM	1 of 6	SFTLNSYGIS	VIYADGRRTFYGDSVK	GEAAGTFKS
390 pM	6 of 6	GFSLDEYGIS	VIYADGRRTFYTDDVK	GNVAGTFDV
2.1 nM	6 of 6	GFDLNEYGIS	VIYADGVRTFYSDSVK	GEAGGTFDV
890 pM	6 of 6	GFNLEDYGIS	VIYADGRRTFYVDSVK	GNVAGTFDV
510 pM	6 of 6	GFSLNSYGIS	VIYSDGRRTFYSDSVK	GREAGTFDK

The closing 12 entries, repeated:

{"CDR-H1": "GFTLNSYGIS", "CDR-H2": "VIYADGRRTFNGDSVK", "CDR-H3": "GRAAATFDS", "Kd": "not detected", "detected": "0 of 6"}
{"CDR-H1": "GFVLNDYGIS", "CDR-H2": "VIYSDGRRTFYADSVK", "CDR-H3": "GRTAGTFDS", "Kd": "1.0 nM", "detected": "6 of 6"}
{"CDR-H1": "GFQLNSYGIS", "CDR-H2": "VIYSDGRRTFYSDSVK", "CDR-H3": "GRAAGTFDS", "Kd": "4.0 nM", "detected": "12 of 12"}
{"CDR-H1": "GKDLQEYGIS", "CDR-H2": "VIYADGARTAYSNSVK", "CDR-H3": "GTQDISLIV", "Kd": "63 nM", "detected": "1 of 6"}
{"CDR-H1": "GFDLNEYGIS", "CDR-H2": "VIYADGKRTFYADSVK", "CDR-H3": "GEAAGTFDI", "Kd": "400 pM", "detected": "6 of 6"}
{"CDR-H1": "GFSLNEYGIS", "CDR-H2": "VIYSDGRRTFYGWNVK", "CDR-H3": "GRTAGTFDS", "Kd": "12 nM", "detected": "4 of 6"}
{"CDR-H1": "KFSLNSYGIS", "CDR-H2": "VIYSDGRRTAYGDSVK", "CDR-H3": "GRAAGTFDS", "Kd": "27 nM", "detected": "6 of 6"}
{"CDR-H1": "SFTLNSYGIS", "CDR-H2": "VIYADGRRTFYGDSVK", "CDR-H3": "GEAAGTFKS", "Kd": "130 nM", "detected": "1 of 6"}
{"CDR-H1": "GFSLDEYGIS", "CDR-H2": "VIYADGRRTFYTDDVK", "CDR-H3": "GNVAGTFDV", "Kd": "390 pM", "detected": "6 of 6"}
{"CDR-H1": "GFDLNEYGIS", "CDR-H2": "VIYADGVRTFYSDSVK", "CDR-H3": "GEAGGTFDV", "Kd": "2.1 nM", "detected": "6 of 6"}
{"CDR-H1": "GFNLEDYGIS", "CDR-H2": "VIYADGRRTFYVDSVK", "CDR-H3": "GNVAGTFDV", "Kd": "890 pM", "detected": "6 of 6"}
{"CDR-H1": "GFSLNSYGIS", "CDR-H2": "VIYSDGRRTFYSDSVK", "CDR-H3": "GREAGTFDK", "Kd": "510 pM", "detected": "6 of 6"}

A sequence measured in both rounds can read differently, since the two assays cover different ranges.
As a blank, each scFv also met three strains without target: over all heavy chain designs, 1% of these pairings were detected, typically at 120 nM and seldom below 7.0 nM.
Where one sequence has several entries in the source, the replicates are pooled.

Reference: Li et al. 2023, doi:10.1038/s41467-023-39022-2. File: FLAb, binding data.